# AlphaSeq binding of Ab-91 heavy chain variants to a spike HR2 peptide

Target peptide (SARS-CoV-2 spike, HR2 region): PDVDLGDISGINAS

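Variants in AAYL51 differ from the parent at up to three CDR positions; double and triple changes were sampled at random. AlphaSeq pools MATa yeast showing the antibodies with MATalpha yeast showing the peptide. Pairs that bind mate more often; barcode pairs of the diploids are counted by sequencing. Read counts were normalised to the haploid input and turned into Kd by a linear fit to BCL2-family pairs of known affinity, for each replicate. Each pool was mated in three replicate cultures.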

Each scFv is VL, a 15-residue (Gly4Ser)3 linker, VH, as in the parent Ab-91, and differs from it in the CDRs of the heavy chain only.
VL: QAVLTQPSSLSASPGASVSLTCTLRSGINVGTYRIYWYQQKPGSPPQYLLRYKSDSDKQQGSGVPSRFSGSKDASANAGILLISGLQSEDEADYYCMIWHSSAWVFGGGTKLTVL
VH: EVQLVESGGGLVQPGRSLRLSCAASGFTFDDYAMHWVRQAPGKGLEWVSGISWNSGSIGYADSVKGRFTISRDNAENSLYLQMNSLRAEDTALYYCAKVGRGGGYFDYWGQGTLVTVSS

Each variant is given by its three heavy chain CDRs, as the data file delimits them; those of the parent are GFTFDDYAMH, GISWNSGSIGYADSVK, VGRGGGYFDY.
Scale: log10 of Kd in nM, estimated from mating counts; low values are strong binders.
"n.d." marks a missing value. The strain was present, yet no cells mated with the target were sequenced in that replicate, which points to weak or no binding.
As a blank, each scFv also met three strains without target: over library AAYL51, 21% of these pairings were detected, typically at 4.54 and seldom below 3.26. The control count says in how many pairings with the empty strains this scFv gave a signal, with their mean in brackets.

| # | CDR-H1 | CDR-H2 | CDR-H3 | log10 Kd (nM) by replicate | control signals |
|---|---|---|---|---|---|
| 1 | GFTFDDYAMH | GISWNSGLIGYADSVK | TGLGGGYFDY | n.d. n.d. n.d. | 3 of 9 (3.86) |
| 2 | GFTFSDYWMH | GISWNSGSIIYADSVK | VGRGGGYFDY | n.d. n.d. n.d. | 1 of 9 (3.75) |
| 3 | GFTFDDRAMH | GISWNSWSIGYADSVK | VGRGGGYFDY | n.d. n.d. n.d. | 0 of 9 |
| 4 | GFTFDVYAMH | DISWNSGSIGYADSVK | VGRGGGYIDY | n.d. n.d. n.d. | 0 of 9 |
| 5 | GFTFDRYAMH | GISMNSGSIGYADSVH | VGRGGGYFDY | n.d. n.d. n.d. | 1 of 9 (3.17) |
| 6 | GFTFDDHAMH | GISWNSMSIGYADSVK | VGRGMGYFDY | n.d. n.d. n.d. | 0 of 9 |
| 7 | GFTFDDYAMH | GIFWNSGSEYYADSVK | VGRGGGYFDY | n.d. n.d. n.d. | 0 of 9 |
| 8 | GFTFDDYAMA | GISWNSGSIGYADSVK | LGRGGGYFDY | 3.45 n.d. n.d. | 1 of 9 (3.94) |
| 9 | GFTFDDYAMH | GISWNSGSIGYADSVK | VGRGGGYFCY | 3.54 4.10 4.76 | 4 of 9 (4.32) |
| 10 | GFTFLDTAMH | GISWNSGSIGYYDSVK | VGRGGGYFDY | n.d. 6.44 n.d. | 3 of 9 (4.74) |
| 11 | GFTFDDYAMH | GISWNSGSIGYADSVG | VGRGGPYFDY | 5.33 5.16 n.d. | 7 of 9 (5.12) |
| 12 | GFTFDDYAMH | GISWNSGSIGYADSVF | NGGGGGYFDY | 4.66 4.07 4.92 | 3 of 9 (5.24) |
| 13 | GFTFDDYAMI | WISWNSGSIGYADSVK | VGTGGGYFDY | n.d. n.d. n.d. | 0 of 9 |
| 14 | GFHFDDYAMH | GISWNSGSIGYADPTK | VGRGGGYFDY | n.d. n.d. n.d. | 0 of 9 |
| 15 | GFTLDDYAMH | GISWNSGSIGIADSVK | VGRGGGYFDY | 5.55 3.14 4.61 | 4 of 9 (4.03) |
| 16 | GFTFDDGAMH | SISWNSGSIGYADSVK | VGRGGGYFDR | n.d. n.d. n.d. | 0 of 9 |
| 17 | GFTFDDYAMH | GISWNSGSIGYADSVK | VGRGGTYTQY | 3.81 n.d. n.d. | 2 of 9 (4.06) |
| 18 | GFTFDDYAMH | GIWWKSGSIGYADSVK | VDRGGGYFDY | n.d. n.d. n.d. | 0 of 9 |
| 19 | GFTHDDYAMH | GISWNSGSIGYADTVK | VHRGGGYFDY | n.d. n.d. n.d. | 1 of 9 (4.02) |
| 20 | GFTFDDYAMK | GISWNSGSIGYCDKVK | VGRGGGYFDY | n.d. n.d. n.d. | 0 of 9 |
| 21 | GITFDDYAMH | GISWNCGSIGYGDSVK | VGRGGGYFDY | n.d. n.d. n.d. | 3 of 9 (4.97) |
| 22 | GFTFDDYAMH | GISWNSGSIGYADSVK | VGMGGKYADY | n.d. n.d. 4.89 | 1 of 9 (4.32) |
| 23 | GFTFDDVAQH | GISWNSGWIGYADSVK | VGRGGGYFDY | n.d. n.d. n.d. | 0 of 9 |
| 24 | GFTFDDNAMH | GITWNSGSIGYADSVK | VGRAGGYFDY | n.d. 3.90 n.d. | 4 of 9 (4.03) |
| 25 | GFTFDDYAMW | GISWNSGSIGYADRVK | VGRGGGYFVY | 4.93 5.36 n.d. | 4 of 9 (4.65) |
| 26 | GFTFDDYAMH | GISLNSGSIGYARSVK | VGRGGGYFDY | 2.87 2.89 2.74 | 1 of 9 (5.48) |
| 27 | GFTFDDYACH | GISWNSGSIGYADSVK | VKRGGGYFDY | n.d. n.d. n.d. | 0 of 9 |
| 28 | GFTFDDYAMH | GISWESGSIGYADSVK | VGRGGGYFDY | n.d. n.d. n.d. | 1 of 9 (4.57) |
| 29 | GITFDDYAMH | GISWNSGSIGYAYSVK | VGRGGGDFDY | 5.50 5.63 4.84 | 0 of 9 |
| 30 | GFTFDDYAMH | GISKNSGSIGYADSVK | VGVGGGYFDY | 3.28 n.d. n.d. | 0 of 9 |
| 31 | GFTFDDYAMH | GISWPSGSQGYADSVK | NGRGGGYFDY | n.d. n.d. n.d. | 0 of 9 |
| 32 | TFTFDNYAMH | GISWNSGSIGYADSDK | VGRGGGYFDY | n.d. n.d. n.d. | 1 of 9 (3.25) |
| 33 | GMTFDDYAMH | GISWNSGSIGYADSVK | VGRGGGYFDY | 3.44 4.43 4.66 | 1 of 9 (3.98) |
| 34 | GFTWDDYQMH | IISWNSGSIGYADSVK | VGRGGGYFDY | 5.51 n.d. n.d. | 2 of 9 (4.54) |
| 35 | GFTFDDYAMH | GISWNSWSIGYKDSVV | VGRGGGYFDY | n.d. n.d. n.d. | 0 of 9 |
| 36 | GFTSDDYAMH | GISWNSGSIGFADSVK | VGRGGGYFDY | n.d. 4.68 n.d. | 2 of 9 (3.79) |
| 37 | GFTFDKYAMH | GIYWNSGSIGYADSVK | VGRGGGYFCY | n.d. n.d. n.d. | 0 of 9 |
| 38 | GFTFDDYAMH | GISWNSGSIGTADSVQ | VGRGGGYFYY | n.d. n.d. 5.10 | 2 of 9 (4.71) |
| 39 | GFTFDDYAMF | GISWNSGSIPYADSVV | VGRGGGYFDY | n.d. n.d. n.d. | 0 of 9 |
| 40 | GFTFDDYAMH | GHSWNSGSIGYADSVK | VIRGGGSFDY | 4.33 n.d. n.d. | 4 of 9 (4.64) |
| 41 | GFTFDDYAMH | GISWNSNSIGYADSGK | VGRGGGYFDA | 1.47 1.24 0.91 | 5 of 9 (5.24) |

7 of these entries, quoted again:

CDR-H1	CDR-H2	CDR-H3	log10 Kd (nM) by replicate	control signals
GFHFDDYAMH	GISWNSGSIGYADPTK	VGRGGGYFDY	n.d. n.d. n.d.	0 of 9
GFTFDDYAMH	GISWNSGSIGYADSVF	NGGGGGYFDY	4.66 4.07 4.92	3 of 9 (5.24)
GFTFDDYAMI	WISWNSGSIGYADSVK	VGTGGGYFDY	n.d. n.d. n.d.	0 of 9
GFTLDDYAMH	GISWNSGSIGIADSVK	VGRGGGYFDY	5.55 3.14 4.61	4 of 9 (4.03)
GFTFDDNAMH	GITWNSGSIGYADSVK	VGRAGGYFDY	n.d. 3.90 n.d.	4 of 9 (4.03)
GFTFDDYACH	GISWNSGSIGYADSVK	VKRGGGYFDY	n.d. n.d. n.d.	0 of 9
GFTFDDYAMH	GISLNSGSIGYARSVK	VGRGGGYFDY	2.87 2.89 2.74	1 of 9 (5.48)

Values reported by Engelhart et al. 2022, doi:10.1038/s41597-022-01779-4 (FLAb copy).